# Results as given in patent US10378058B2, “Diagnostic and therapeutic methods and compositions involving PTEN and breast cancer” (Board of Regents of The University of Texas System, priority 2003, dated 2019).
# “Also recorded” adds a separate entry of the source.
# Experiments:
# [1] = system: ErbB2-overexpressing primary breast carcinomas; test: Clinical response of metastatic breast cancer patients by PTEN / ErbB2 status; assay type: in vivo, human; details: PTEN IRS ranges 0-3, 4-7, 8-12; Cochran-Armitage test, P<0.01
# Method: Patient samples. […] The 47 patients were treated between 1998-2001 and the 37 patients were treated between 1990 and 1991 under IRB-approved clinical trials at The University of Texas M.D. Anderson Cancer Center. Association between clinical response to therapy and PTEN status was tested using chi-square and Fisher's tests.
# PTEN Immunohistochemistry. Slides of formalin-fixed, paraffin-embedded tissue sections (4 μm) were incubated with primary antibody (1:500) against PTEN (Podsypanina et al. 2001) (Ab-2, Lab Vision Corp.). Immunodetection was performed with LSAB2 kit (DAKO, Carpinteria, Calif.), color development with 3-3′-diaminobenzidine, and counterstaining with hematoxylin. PTEN expression level was scored semiquantitatively based on staining intensity and distribution using the immunoreactive score (IRS) as described (Chui et al., 1996; Fredrichs et al., 1993) and as following: IRS=SI (staining intensity)×PP (percentage of positive cells). SI was determined as 0=negative; 1=weak; 2=moderate; and 3=strong. PP was defined as 0, <1%; 1, 1%-10%; 2, 11%-50%; 3, 51%-80%; and 4, >80% positive cells. […]
# ErbB2 status. ErbB2 gene amplification in patients' samples was determined by fluorescence in situ hybridization (FISH) using PathVysion FISH assay (Vysis, Inc., Downers Grove, Ill.). ErbB2 protein overexpression was determined by IHC as previously described (Jacobs et al., 1999).
# SKBr3 cells = test: Cell proliferation of SKBr3 cells (MTS assay); assay type: cell-based, human; details: PTEN AS-treated vs MIS control-transfected SKBr3 cells; 2 μg/ml, 3 and 5 days
# Method: (§1) Cell viability assay. Cells were seeded at 1-5×10^3 cells/well in 96-well plates after oligonucleotide transfection. Viable cells were determined by CellTiter 96 AQueous Non-Radioactive Cell Proliferation Assay (Promega, Madison, Wis.).
# PTEN [2] = test: PTEN tyrosine phosphorylation (PTEN IP, phosphotyrosine immunoblot); assay type: cell-based, human; details: BT474 cells, trastuzumab 2 μg/ml
# Method: (§2) Preparation of Cell Lysates, Immunoprecipitation, and Western Blot Analysis. Cells at 70%-80% confluence were treated with each reagent indicated in the individual experiments. For PTEN phosphotyrosine immunoblots, ErbB2 IP, and Src IP, cells were treated with 30 mM pervanadate for 10 min as described (Lu et al., 2003). Unless noted, cells were washed with PBS and lysed in IP buffer with protease inhibitor cocktail (Sigma Chemical Co., St. Louis, Mo.). Immunoprecipitation and Western blot analysis were performed (Yu et al., 1998).
# BT474 tumor xenografts = test: BT474 mammary fat pad xenograft tumor growth in nude mice; assay type: in vivo; details: trastuzumab 10 mg/kg twice per week
# Method: Animal experiment. Female athymic nude mice (Harlan Sprague Dawley, Indianapolis, Ind.) were implanted with 0.72-mg 60-day-release 17β-estradiol pellets (Innovative Research, Sarasota, Fla.) and irradiated at 3.5 Gy prior to inoculation. BT474 cells (8×10^6) in 200 μl of PBS and Matrigel (BD Biosciences, Bedford, Mass.) mixture (1:1 ratio) were injected subcutaneously into a mouse mammary fat pad (mfp). When the mfp tumor volume reached >150 mm^3, the tumor was treated with PTEN antisense or control mismatched oligonucleotides (30 μg/week) in saline. […] Tumor diameters were serially measured with calipers and tumor volumes calculated: volume=width^2×length/2. Each treatment group contained 8-12 mice. Unpaired Student's t-test was used to assess statistical significance.
# BT474 cells [3] = test: Cell viability assay of BT474 cells; assay type: cell-based, human; details: trastuzumab 2 μg/ml, 3 days
# Method: as §1
# PTEN [4] = test: PTEN phosphatase assay on PTEN immunoprecipitated from treated cells; assay type: cell-based, human; details: SKBr3 cells
# Method: PTEN phosphatase assay. PTEN phosphatase activity was measured as described with minor modifications (Georgescu et al., 1999). Each assay was performed in 50 μl buffer containing 100 mM Tris-HCl (pH 8.0), 10 mM DTT, and 100 μM water-soluble diC8-PIP3 (Echelon, Salt Lake City, Utah). Reactions contained PTEN immunoprecipitated from cell lysates on protein G-agarose beads. […] After immunoprecipitation, the beads were washed once in lysis buffer; five times in low-stringency buffer containing 20 mM Hepes (pH 7.7), 50 mM NaCl, 0.1 mM EDTA, and 2.5 mM MgCl2; and once in phosphatase assay buffer lacking PIP3. Reactions were incubated for 40 min at 37° C. and transferred to a 96-well plate. Release of phosphate from substrate was measured using Biomol Green Reagent (Biomol Research Laboratories, Inc., Plymouth Meeting, Pa.).
# PTEN [5] = test: Separation of membrane-bound and cytosolic proteins, PTEN Western blot; assay type: cell-based, human; details: BT474 cells, trastuzumab 20 min
# Method: (§3) Separation of membrane-bound and cytosolic proteins. Cells were lysed in saponin buffer (0.01% saponin, 10 mM Tris-HCL at pH 7.4, 140 mM NaCl, 5 mM EDTA, 2 mM EGTA, 0.2 mM sodium vanadate, 50 mM NaF, 25 mM β-glycerophosphate) containing protease inhibitor cocktail (Sigma). Proteins were extracted for 20 min on ice, and samples centrifuged at 14,000 g for 30 min at 4° C. The saponin soluble pool (cytosolic pool) was collected (Palka and Green, 1997). The remaining pellet was rinsed with saponin buffer once, extracted in IP buffer, and centrifuged to remove insoluble materials. The supernatant was collected (membrane-bound pool).
# [6] = system: ErbB2-overexpressing metastatic breast cancer; details: cited from earlier work
# PTEN [7] = test: PTEN membrane translocation in 435.eB and eB/SrcCA cells; assay type: cell-based
# Method: as §3
# Src tyrosine kinase = test: Src kinase assay and Src-Y416 phosphorylation after trastuzumab; assay type: cell-based; details: trastuzumab-treated vs untreated cells
# Method: Src kinase assay. Equal amounts of cell lysates were immunoprecipitated with anti-Src antibody (0P07, Oncogene Tesearch Products, Boston, Mass.). The precipitates were washed and incubated with 250 μg/ml enolase, 2 μCi of [γ^32P]ATP, and 3 μl of 100 mM ATP in 40 μl of kinase buffer. After 30 min at 37° C., the samples were boiled in 15 μl of 6×SDS sample buffer for 5 min and then subjected to SDS-PAGE. The ^32P-labeled enolase was visualized by autoradiography.
# as §2
# Akt = Akt phosphorylation by immunoblotting in trastuzumab-treated cells; assay type: cell-based, human; details: for Akt dephosphorylation by trastuzumab: trastuzumab 2 μg/ml
# Method: as §2
# BT474 cells [8] = test: BrdU incorporation assay in BT474 cells; assay type: cell-based, human; details: trastuzumab 2 mg/ml, 48 h
# From the text: BrdU incorporation assay. S-phase cells were detected using 5-bromo-2′-deoxyuridine (BrdUrd) Labeling and Detection Kit I (Roche Molecular Biochemicals, Indianapolis, Ind.).
substance,measurement,setting,value
trastuzumab,probability of response / response rate vs PTEN IRS,[1],decreases as PTEN expression (IRS score) decreases
same,Inhibition of cell proliferation by trastuzumab,SKBr3 cells,significantly less effective in PTEN AS-treated cells
same,PTEN tyrosine phosphorylation,PTEN [2],rapidly reduced PTEN tyrosine phosphorylation; also recorded: Reduction of PTEN tyrosine phosphorylation
same,tumor growth inhibition,BT474 tumor xenografts; MIS control-treated tumors expressing normal PTEN,only inhibited MIS control-treated tumors expressing normal PTEN
same,tumor growth inhibition,BT474 tumor xenografts; PTEN AS-treated tumors with reduced PTEN,more resistant to trastuzumab than PTEN normal BT474 xenografts
same,tumor growth inhibition,"BT474 tumor xenografts; PTEN AS-treated tumors with reduced PTEN, listed as Trastuzumab",but not PTEN AS-treated tumors with reduced PTEN
same,"trastuzumab-mediated growth inhibition, MIS-treated vs PTEN AS-treated cells",BT474 cells [3],more sensitive to trastuzumab-mediated growth inhibition than the PTEN AS-treated cells
same,PTEN phosphatase activity,"PTEN [4]; 20 min trastuzumab treatment, vs untreated cells",dramatically increased
same,PTEN phosphatase activity,PTEN [4]; 60 min after treatment,continued to increase
same,PTEN phosphatase activities,"PTEN [4]; trastuzumab 2 μg/ml, 20 or 60 min",Increased PTEN phosphatase activities
same,PTEN protein in the membrane-bound pool,PTEN [5],noticeably enriched
same,PTEN protein in the membrane-bound pool,PTEN [5]; listed as Trastuzumab,increased membrane bound PTEN
same,patients responding to trastuzumab as a single agent,[6]; ErbB2-overexpressing metastatic breast cancer,less than 35%
same,"patients suffering from severe side effects (e.g., cardiac dysfunction)",[6]; trastuzumab treatment,~5%
same,PTEN membrane translocation,PTEN [7]; 435.eB cells,effectively increased the PTEN membrane translocation
same,PTEN membrane translocation,PTEN [7]; eB/SrcCA cells expressing constitutively activated Src,less effective
same,Src kinase activity,Src tyrosine kinase,rapidly inhibited Src kinase activity
same,Src phosphorylation on Y416,Src tyrosine kinase,rapidly reduced Src phosphorylation on Y416
same,level of phosphorylated and activated Akt,"Akt; 1 h trastuzumab treatment, BT474 and SKBr3 cells, Akt protein level unchanged",quickly reduced the level of phosphorylated and activated Akt; also recorded: Rapid Akt dephosphorylation
same,Akt dephosphorylation by trastuzumab,Akt; MIS control-treated SKBr3 cells,rapid Akt dephosphorylation
same,Akt dephosphorylation by trastuzumab,Akt; PTEN AS-treated SKBr3 cells,attenuated
same,BrdU incorporation,BT474 cells [8]; PTEN normal expressing (MIS) BT474 cells,reduces BrdU incorporation
same,BrdU incorporation,BT474 cells [8]; PTEN-deficient (PTEN AS) BT474 cells,but not of PTEN-deficient (PTEN AS) BT474 cells
